## Binding of CDR-mutated scFvs to a peptide of the spike HR2 region

The measurements come from Engelhart et al. 2022 (doi:10.1038/s41597-022-01779-4) through the FLAb antibody collection.

The target is the same throughout: PDVDLGDISGINAS, from the HR2 region of SARS-CoV-2 spike.

Parent scFv Ab-95: VH joined to VL by a (GGGGS)3 linker. Changes lie in the light chain CDRs alone.
VH: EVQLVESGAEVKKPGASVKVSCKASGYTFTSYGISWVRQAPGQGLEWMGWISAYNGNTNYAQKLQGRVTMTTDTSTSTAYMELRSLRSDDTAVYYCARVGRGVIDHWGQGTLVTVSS
VL: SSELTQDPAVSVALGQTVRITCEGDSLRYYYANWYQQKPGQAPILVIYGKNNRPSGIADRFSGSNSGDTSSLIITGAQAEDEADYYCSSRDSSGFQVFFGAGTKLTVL

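The parent was found by panning a naive human phage display library on the peptide. The library (AAYL52) carries one to three amino acid substitutions per variant, with no insertions or deletions. The scFvs were displayed on barcoded MATa yeast, the peptide on MATalpha yeast. Pairs that bind mate more often; barcode pairs of the diploids are counted by sequencing. Each replicate has its own calibration line, from reference interactions of the BCL2 family. There are three technical replicates.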

Substitutions are numbered in sequence along the VL above, starting at 1 (not Kabat). Every variant below is changed at S92 of the VL (sequential numbering). Values are apparent Kd, the geometric mean of the replicates that gave a signal; lower means stronger binding. "not detected" marks a missing value. The strain was present, yet no cells mated with the target were sequenced in any replicate, which points to weak or no binding. Three control strains display no target. For library AAYL52, 28% of the pairings with them gave a signal, with a median of 8.2 µM and one signal in twenty below 800 nM, so weak values seen in few replicates may be background. For each scFv, signals with the empty controls are counted beside the result.

changes	Kd (apparent)	replicates with signal	empty controls
Y29N+S92N+F98H	43 nM	3/3	0/9
D25P+R90L+S92P	not detected	0/3	1/9
S55V+S92P+S93N	410 nM	3/3	6/9
S92N+S93Y	150 nM	3/3	2/9
A32L+S92V+F95I	4.3 µM	1/3	2/9
S92H+S93A	210 nM	3/3	4/9
S88K+S92F+F98M	not detected	0/3	1/9
Y29G+S92N	7.4 nM	3/3	5/9
S88A+S92E	120 nM	3/3	3/9
D25R+S92W	500 nM	3/3	5/9
L27W+G49K+S92N	2.8 µM	2/3	1/9
P54Q+S55H+S92D	1.6 µM	2/3	2/9
R28V+S92A+G94E	3.5 µM	3/3	0/9
S26V+S55I+S92V	4.0 µM	3/3	2/9
R90I+S92Y+F98H	280 nM	3/3	4/9
S26A+S92T	800 nM	3/3	1/9
E23D+S26K+S92F	5.3 µM	1/3	4/9
N52S+S92P+V97S	4.0 µM	3/3	1/9
L27P+G49N+S92R	15 µM	1/3	2/9
L27Y+A32F+S92P	890 nM	3/3	5/9
Y29S+S92A+Q96Y	88 nM	3/3	3/9
L27C+Y30P+S92A	2.7 µM	1/3	2/9
Y31N+S92L+F95P	50 nM	3/3	3/9
E23M+S92E	39 nM	3/3	3/9
P54M+S92P+F95I	19 µM	1/3	2/9
R28V+S92A	1.7 µM	2/3	3/9
N52M+R53W+S92I	not detected	0/3	1/9
N33D+S92N	1.4 µM	1/3	3/9
N52Q+R90H+S92F	31 µM	1/3	4/9
L27P+R53H+S92R	not detected	0/3	1/9
G49A+S92P+Q96W	860 nM	3/3	1/9
N51I+S88Y+S92E	3.5 µM	2/3	0/9
L27I+Y30L+S92A	2.1 µM	3/3	3/9
Y29A+S92L+G94P	7.5 µM	1/3	2/9
S92H+G94Q+F95H	2.9 µM	3/3	5/9
D25I+A32W+S92Y	1.3 µM	1/3	2/9
L27E+R28Y+S92M	290 µM	1/3	3/9
E23I+D91V+S92R	530 nM	3/3	2/9
S26P+Y30G+S92D	9.9 nM	3/3	1/9
R28K+S92T+F95V	1.1 µM	3/3	5/9
S55M+S92M	580 nM	3/3	2/9
N33W+S92F+F95L	not detected	0/3	1/9
P54S+D91I+S92D	6.8 µM	2/3	1/9
S55I+S92C+S93R	5.0 µM	3/3	4/9
R90I+S92P+S93D	300 nM	3/3	2/9
R28T+N52L+S92Y	950 nM	3/3	3/9
L27I+D91C+S92T	4.4 µM	2/3	3/9
S26N+Y31C+S92W	1.2 µM	3/3	2/9
S26I+N33A+S92L	2.2 µM	1/3	2/9
D91Q+S92P+Q96G	120 µM	1/3	1/9
N33I+S92K+F98Y	not detected	0/3	1/9
G49H+S89T+S92D	1.1 µM	2/3	1/9
N51W+S92R	1.9 µM	3/3	5/9
S92I+S93G+Q96S	2.0 µM	3/3	1/9
A32I+N33E+S92K	83 µM	1/3	2/9
S55A+S92M+F95E	1.2 µM	3/3	3/9
G24I+D91A+S92W	1.2 µM	1/3	2/9
R53D+S89K+S92T	23 µM	2/3	3/9
S92C+F95A	230 nM	3/3	4/9
S26W+S92C+F95G	4.4 µM	1/3	3/9
G49H+S92W+Q96I	140 µM	1/3	2/9
Y29H+S89C+S92Y	120 nM	3/3	1/9
S26Y+P54E+S92E	61 µM	1/3	1/9
P54I+S92K+Q96Y	7.0 µM	3/3	3/9
Y31G+S92P	32 nM	3/3	2/9
S26F+S92A	6.9 µM	2/3	3/9
D25Q+S92G+S93W	160 nM	3/3	2/9
N33W+N51C+S92Y	3.6 µM	1/3	3/9
Y29C+A32M+S92H	14 µM	2/3	6/9
G49P+S92A	4.6 µM	3/3	2/9
S92G	210 nM	3/3	2/9
P54C+S88W+S92T	840 nM	3/3	6/9
G24H+R90L+S92P	not detected	0/3	2/9
Y30F+S92A+F95L	1.0 µM	3/3	6/9
S88H+R90P+S92K	300 nM	3/3	2/9
S26I+S92W+F98V	140 nM	3/3	1/9
Y30D+Y31M+S92R	55 nM	3/3	1/9
Y30L+S92D+F95Q	460 nM	3/3	2/9
Y30F+S92V	1.8 µM	2/3	2/9
Y31V+S89F+S92P	1.9 µM	1/3	1/9

Excerpt, the final 12 entries:

| changes | Kd (apparent) | replicates with signal | empty controls |
|---|---|---|---|
| Y29C+A32M+S92H | 14 µM | 2/3 | 6/9 |
| G49P+S92A | 4.6 µM | 3/3 | 2/9 |
| S92G | 210 nM | 3/3 | 2/9 |
| P54C+S88W+S92T | 840 nM | 3/3 | 6/9 |
| G24H+R90L+S92P | not detected | 0/3 | 2/9 |
| Y30F+S92A+F95L | 1.0 µM | 3/3 | 6/9 |
| S88H+R90P+S92K | 300 nM | 3/3 | 2/9 |
| S26I+S92W+F98V | 140 nM | 3/3 | 1/9 |
| Y30D+Y31M+S92R | 55 nM | 3/3 | 1/9 |
| Y30L+S92D+F95Q | 460 nM | 3/3 | 2/9 |
| Y30F+S92V | 1.8 µM | 2/3 | 2/9 |
| Y31V+S89F+S92P | 1.9 µM | 1/3 | 1/9 |